# Results from PubChem BioAssay AID1625 (Sanford-Burnham Center for Chemical Genomics, 2009).
# “And” between values parts separate entries of the source, which are not always exact repeats. Identical values can stand only once. Only a part is listed here, and it is no random draw. The source made the active and inactive calls.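 How the source made its calls: active means z-score above 3 at 5 µM with at least 500 cells counted in the well; inconclusive means wells under 500 cells, flagged as cytotoxic or low count; inactive means the rest.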
# Assay: up-regulation of insulin promoter-GFP reporter – imaging, high-content screening, mouse beta cells (AID 1625)
# Settings: MIN6 insulin promoter-GFP reporter, at 5 µM, hits give high values
row,SMILES,z-score
1,Nc1ccc([As](=O)(O)c2ccc(N)cc2)cc1,inactive: -0.15
2,CCc1ccc(OP(C)(=O)Nc2cccnc2)cc1 (stereo unspecified),inactive: 0.1
3,CCc1nc2c(n1)c1c(non1O)c1c2no[n+]1[O-],inactive: -0.23
4,CP(=O)(Oc1ccccc1)N1CCOC1=O (stereo unspecified),inactive: 0.68
5,Cc1ccc(NP(=O)(Oc2ccccc2)Oc2ccccc2)nc1,inactive: -0.03
6,O=C(OCCCN1CCCC1)C(O)(c1ccccc1)C1CCCCC1 (stereo unspecified),inactive: 0.48
7,COc1ccccc1OP(C)(=O)Nc1c(C)n(C)n(-c2ccccc2)c1=O (stereo unspecified),inactive: 0.33
8,COc1ccc(OP(C)(=O)Nc2ccc(Br)cc2)cc1 (stereo unspecified),inactive: 0.07
9,COc1ccc(C2=NCC(CBr)S2)cc1 (stereo unspecified),inactive: 0.22
10,CCN(CC)CC(O)COC(=O)C(O)(c1ccccc1)C1CCCCC1 (stereo unspecified),inactive: -0.04
11,O=C(O)CNc1ccc([As](=O)(O)O)cc1,inactive: -0.21
12,O=[N+]([O-])c1cccc(NC2=NCC(CBr)S2)c1 (stereo unspecified),inactive: -0.22
13,O=[N+]([O-])c1ncn(CCn2ncnc2[N+](=O)[O-])n1,inactive: 1.07
14,CC(C)(C)C(=O)NC(Sc1ccncn1)C(Cl)(Cl)Cl (stereo unspecified),inactive: 0.68
15,CP(=O)(OC12CC3CC(CC(C3)C1)C2)OC12CC3CC(CC(C3)C1)C2,inactive: 0.39
16,O=C(Nc1cc([As](=O)(O)O)ccc1O)c1ccccc1,inactive: 0.2
17,CP(=O)(Nc1ccc(Cl)cc1Cl)Oc1ccccc1 (stereo unspecified),inactive: 0.02
18,CP(=O)(OCCOc1ccccc1)OCCOc1ccccc1,inactive: 0.11
19,Nc1cccc2ccc([As](=O)(O)O)cc12,inactive: -1.47
20,CCN(N=Nc1nonc1N)c1nonc1N,inactive: 0.06
21,Cc1nc2ccc3ccccc3c2o1.O=[N+]([O-])c1cc([N+](=O)[O-])c(O)c([N+](=O)[O-])c1,inactive: 1.56
22,COc1ccc(OP(C)(=O)Nc2ccccc2Br)cc1 (stereo unspecified),inactive: -0.42
23,COc1ccccc1OP(C)(=O)Nc1ccc(C)c(C)c1 (stereo unspecified),inactive: 0.84

row,SMILES,z-score
1,Cc1ccc(NP(=O)(Oc2ccccc2F)Oc2ccccc2F)nc1,inactive: 0.46
2,Cc1cc(SC(NC(=O)c2ccc(F)cc2)C(Cl)(Cl)Cl)ncn1 (stereo unspecified),inactive: -0.56
3,CCOP(=O)(Nc1ccccc1)OCC,inactive: -0.31 and inactive: 0.07
4,O=P(Nc1nc2ccc(Cl)cc2s1)(c1ccccc1)c1ccccc1,inactive: -0.02
5,Cc1cc(C)cc(OP(C)(=O)Nc2cccc(C(F)(F)F)c2)c1 (stereo unspecified),inactive: -0.33
6,CC(=O)Nc1ccc([As](=O)(O)O)cc1,inactive: -0.79
7,O=C(O)c1ccccc1[As](=O)(O)O,inactive: 2.48
8,CCc1ccc(OP(C)(=O)O)cc1,inactive: 0.84
9,COc1ccccc1OP(C)(=O)Nc1ccc(C)cc1C (stereo unspecified),inactive: 0.85
10,CP(=O)(Nc1ccccn1)Oc1ccccc1 (stereo unspecified),inactive: 1.29
11,Cc1c2non([O-])c-2c(C)[n+](=O)[n+]1[O-],inactive: 0.15
12,Oc1ccccc1CNc1ccccn1,inactive: 1.03
13,Cc1c(NP(C)(=O)Oc2ccc(C(C)C)cc2)c(=O)n(-c2ccccc2)n1C (stereo unspecified),inactive: 1.59
14,O=[N+]([O-])c1cc([N+](=O)[O-])c(Nc2ccccn2)c([N+](=O)[O-])c1,inactive: -0.47
15,CN(C)CCOC(=O)C(O)(c1ccccc1)C1CCCC1 (stereo unspecified),inactive: -0.27
16,Clc1ccc(Cl)c(NC2=NCC(CBr)S2)c1 (stereo unspecified),inactive: -0.2
17,Cc1ccc(OP(=O)(Nc2nccs2)Oc2ccc(C)cc2)cc1,inactive: -0.02
18,COc1ccccc1OP(=O)(Nc1ccc(C)cn1)Oc1ccccc1OC,inactive: 0.1
19,COc1ccc(OP(C)(=O)Nc2ccccn2)cc1 (stereo unspecified),inactive: 0.54
20,Cc1ccc(N/C(=N/P(=O)(N2CCOCC2)N2CCOCC2)N2CCOCC2)cc1,inactive: -0.33
21,COc1ccccc1OP(C)(=O)Nc1ccc(Br)cc1 (stereo unspecified),inactive: 0.5
22,NC(=O)c1cc([N+](=O)[O-])cc([N+](=O)[O-])c1N,inactive: -0.23
23,CC(=O)Nc1ccc(Oc2c([N+](=O)[O-])cc([N+](=O)[O-])cc2[N+](=O)[O-])cc1,inactive: 0.12

row,SMILES,z-score
1,CC(=O)Nc1ccc([As](=O)(O)O)c(O)c1,inactive: 0.28
2,C[C@H]1OP(=O)(Oc2ccccc2)C[C@@H]2O[C@@H]21 (stereo partly specified),inactive: 0.65
3,C[C@@H]1C=CCP(=O)(Oc2ccccc2)O1 (stereo partly specified),inactive: -0.09
4,O=C(OCCN1CCN(CCOCc2ccccc2)CC1)C(O)(c1ccccc1)c1ccccc1,inactive: 0.18
5,O=C(OC1CN2CCC1CC2)c1ccc([N+](=O)[O-])cc1 (stereo unspecified),inactive: 0.9
6,CC(C)c1ccc(OP(C)(=O)Nc2ccc(SC(F)(F)F)cc2)cc1 (stereo unspecified),inactive: -0.28
7,CC(C)(C)C(=O)NC(Sc1ccccc1)C(Cl)(Cl)Cl (stereo unspecified),inactive: -0.44
8,CP(=O)(Nc1ccccc1F)Oc1ccccc1 (stereo unspecified),inactive: 0.13
9,CCOc1ccc(C2=NCC(CBr)S2)cc1 (stereo unspecified),inactive: -0.43
10,O=P1(Nc2nc3ccc(Cl)cc3s2)COc2ccccc2O1 (stereo unspecified),inactive: 0.16
11,CCCCCOc1ccc(NP(C)(=O)Oc2ccc(Cl)cc2Cl)cc1 (stereo unspecified),inactive: -0.1
12,CN(C)C(=O)Oc1noc2ccccc12,inactive: 0.17
13,Cc1ccccc1OP(=O)(Nc1ccccn1)Oc1ccccc1C,inactive: -0.06
14,CP(=O)(Nc1ccccc1)Oc1ccc(F)cc1 (stereo unspecified),inactive: 0.37
15,Cc1ccc(OP(=O)(Nc2ccccn2)Oc2ccc(C)cc2)cc1,inactive: 0.2
16,CC(=O)NC(SC(=S)N(CC(C)C)CC(C)C)C(Cl)(Cl)Cl (stereo unspecified),inactive: -0.43
17,COC(=O)c1cc2c(s1)N=C(c1ccccc1)N(C)P2(=O)N1CCOCC1 (stereo unspecified),inactive: -0.4
18,COc1ccc(OP(C)(=O)Nc2ccc(SC(F)(F)F)cc2)cc1 (stereo unspecified),inactive: -1.16
19,CCOC(=O)c1ccc(NP(C)(=O)Oc2ccc(F)cc2)cc1 (stereo unspecified),inactive: 0.35
20,CCOC(=O)NC(Sc1ccccc1)C(Cl)(Cl)Cl (stereo unspecified),inactive: -0.6
21,Cc1ccc(NP(=O)(Oc2cccc(C)c2)Oc2cccc(C)c2)nc1,inactive: 0.15
22,c1ccc(-c2nn[nH]n2)c(-c2nn[nH]n2)c1,inactive: -0.11
23,O=C(NC1CCS(=O)(=O)C1)NP(=S)(Oc1ccccc1)Oc1ccccc1 (stereo unspecified),inactive: -0.14

row,SMILES,z-score
1,CCNC(=S)/N=C(\N)N[N+](=O)[O-],inactive: -0.59
2,O=C(OC1CN2CCC1CC2)c1cccc(Cl)c1 (stereo unspecified),inactive: -0.3
3,C(Cc1nn[nH]n1)Cc1nn[nH]n1,inactive: 0.33
4,Nc1ccc([As](=O)(O)c2ccc([N+](=O)[O-])cc2)cc1,inactive: 0.48
5,O=[N+]([O-])c1cc([N+](=O)[O-])c(NCC2CCS(=O)(=O)C2)c([N+](=O)[O-])c1 (stereo unspecified),inactive: 2.12
6,Cc1cc(-c2cccc3ccccc23)c(C)cn1.O=[N+]([O-])c1cc([N+](=O)[O-])c(O)c([N+](=O)[O-])c1,inactive: 0.24
7,O=[As](O)(c1ccccc1)c1ccc(O)cc1,inactive: 0
8,O=[N+]([O-])c1ncn(CCn2cnc([N+](=O)[O-])n2)n1,inactive: -0.47
9,O=[N+]([O-])c1ccc(OP2(=O)COCCO2)cc1 (stereo unspecified),inactive: 0.05
10,COc1ccc(NP(C)(=O)Oc2ccccc2OC)cc1 (stereo unspecified),inactive: 0.27
11,C[C@H]1OP(=O)(Oc2ccccc2)[C@H](O)[C@H](O)[C@H]1N=[N+]=[N-] (stereo partly specified),inactive: 0.41
12,O=P(Nc1nc2ccccc2s1)(c1ccccc1)c1ccccc1,inactive: 0.45
13,CN(C)CCOC(=O)C(O)(c1ccccc1)C1CCCCC1 (stereo unspecified),inactive: -0.14
14,O=P(Nc1ccccn1)(c1ccc(Br)cc1)c1ccc(Br)cc1,inactive: 0.75
15,COc1ccc(OP(C)(=O)Nc2cccc(Br)c2)cc1 (stereo unspecified),inactive: -0.36
16,Cc1ccccc1NP(C)(=O)Nc1ccccc1C,inactive: 0.48
17,CP(=O)(Nc1ccc2c(c1)OCCO2)Oc1ccccc1 (stereo unspecified),inactive: 0.39
18,c1nnnn1CCn1cnnn1,inactive: -1.04
19,CCOP(C)(=S)SCC(=O)NC(C)(CC)C(=O)O (stereo unspecified),inactive: 0.43
20,O=P(Nc1nccs1)(c1ccccc1)c1ccccc1,inactive: 0.21
21,CC(C)C(=O)NC(Sc1ccccc1)C(Cl)(Cl)Cl (stereo unspecified),inactive: -0.11
22,CP(=O)(Nc1ccc(SC(F)(F)F)cc1)Oc1ccc(F)cc1 (stereo unspecified),inactive: 0.02
